Entries after “also recorded” stand apart in the source; their conditions may differ.
Key:
[1] = Micelle size by dynamic light scattering and TEM; type: physicochemical; conditions: FRET-compatible PAs
Method: Micelle size was assessed using dynamic light scattering (DLS, Brookhaven Instruments, Holtzville, N.Y., USA). Stock solutions of 0.5 mM micelles were prepared in water as described above and DLS measurements were performed at 90° angle and 637 nm system consisting of a BI-200SM goniometer and a BI-9000AT autocorrelator. Hydrodynamic radii were determined via the Stokes-Einstein equation using the diffusion coefficient determined from the auto correlation function.
Ultrathin carbon type-A 400 mesh copper grids (Ted Pella, Redding, Calif., USA) were loaded with 5 μL of 0.5 mM PA micelles and allowed to dry. Grids were washed with several drops of water and then negatively stained with 1% aqueous phosphotungstic acid for 3 min. The excess solution was then removed and grids were left to dry. Grids were imaged on a FEI Tecnai 12 TEM using an accelerating voltage of 120 kV.

HeLa cells = test: Intracellular cleavage and trafficking of FRET PAs after 1 hour pulse (confocal and superresolution microscopy); type: cell-based; conditions: for Cellular internalization: 1 hour pulse; for Relative amount of intracellular p53(14-29) peptide (Tamra intensity): 6 hours; for FRET signaling / FRET efficiency from 6 hours to 24 hours: washed after 1 hour, superresolution confocal; for FRET signaling in cells: 1 hour incubation then wash, followed for 6 hours
Method: HeLa cells were maintained in DMEM (Invitrogen) supplemented with 10% FBS, 100 U ml^−1 penicillin/streptomycin, 2 mM L-glutamine, and 0.1 mM MEM nonessential amino acids. Cells were grown at 37° C., humidified atmosphere and 5% CO2. Cells were allowed to attach on the surfaces overnight (12 h).
HeLa cells were incubated with 2.5 μM PAs and 0.1 μM transferrin (Alexa Fluor 647 labeled, Thermo Fisher Science) for 1 hour in Advanced DMEM (Invitrogen) supplemented with 1% FBS. The media was then removed and cells were washed and either fixed immediately with 4% paraformaldehyde in PBS for 10 minutes at room temperature, or replaced with new peptide-free media and cells were allowed to incubate for another 1, 2, or 5 hours before being fixed. The fixed cells were then washed and left in PBS before being imaged. For accumulation experiments, 10 μM PAs were incubated individually and left on the cells for 24 h and the confocal images were taken in different time periods from live cells.
Images were taken by Marianas Yokogawa type spinning disk (inverted confocal microscope). The following lasers were used: (1) green: λexc=488 nm, filter: green; (2) Red: λexc=565 nm, filter: red; (3) Transferrin: λexc=640 nm, filter: far red; (4) FRET channel: λexc=488 nm, filter: red. Superresolution images were taken on a Leica SP5 II STED-CW Superresolution Laser Scanning Confocal Microscope. All imaging was performed at the Integrated Light Microscope Core Facility at the University of Chicago. Images were analyzed by ImageJ software.
To better understand trafficking of p53(14-29) inside cells, FRET capable PA constructs were used (FIG. 3). HeLa cells were pulsed with 2.5 μM PA for 1 hour and washed rather than allow for continuous PA exposure that would complicate our visualization of catB-mediated cleavage and intracellular trafficking. […] Each was taken in through endocytosis with substantial compartmental co-localization with transferrin-positive intracellular vesicles, reflective of early and late endosomal trafficking (FIG. 6). Despite most intact PAs being associated with transferrin-positive early endosomes, there was also evidence of dissociation and movement of diC16 out of these endosomes and into other areas of the cell as early as 1 hour following treatment with diC16-VC-PABA-p53(14-29) (FIG. 6). Transferrin labels early endosomes that ultimately transition to sorting endosomes or endocytic recycling compartments where transferrin is released from the transferrin receptor at low pH (Refs. B52-B54; incorporated by reference in their entireties). Because this process can take as little as 10 minutes, it is unclear if these diC16 tail fragments were located within late endosomes or being recycled back to the cell surface (Ref. B54; incorporated by reference in its entirety). Regardless, unlike diC16-VC-PABA-p53(14-29), control diC16-GGG-p53(14-29) PAs were universally found in vesicles as one unit (FIGS. 5 and 6). Cleavage of p53(14-29) from diC16 and loss of FRET signal in cells treated diC16-VC-PABA-p53(14-29) occurred almost completely by 3 hours following incubation whereas FRET signal was retained in cells treated with diC16-GGG-p53(14-29) PAs (FIG. 5). p53(14-29) peptide appeared to accumulate in discrete locations within the cell by 6 hours in contrast to control PAs. Additionally, diC16-GGG-p53(14-29) PA treated cells lost overall intensity over time (FIG. 4).
To confirm that loss of FRET signal was due to cleavage of p53(14-29) from diC16 and not loss of FRET efficiency (e.g., due to loss of fluorescent intensity, photobleaching, etc.), HeLa cells were treated as above but with an increased PA concentration of 10 μM. Extracellular PA was washed away after 1 hour and cells were allowed to incubate for 6 and 24 hours followed by superresolution laser scanning confocal microscopy. Raw images were analyzed for FRET signaling at each time point comparing diC16-VC-PABA-p53(14-29) to diC16-GGG-p53(14-29) and non-treated cells (FIG. 7). […]

diC16-GGG-p53(14-29): non-cleavable control p53(14-29) peptide amphiphile: diC16 hydrophobic tail, GGG linker, FAM and Tamra fluorophores
DLS second scattering (aggregation) [1]: 200 nm
Cellular internalization (HeLa cells; 2.5 μM PA): equivalently internalized within one hour
Relative amount of intracellular p53(14-29) peptide (Tamra intensity) (HeLa cells; 10 μM PA): similar
Intracellular p53(14-29) peptide levels (Tamra intensity) (HeLa cells; 10 μM PA, by 24 hours): dropped significantly
FRET signaling / FRET efficiency from 6 hours to 24 hours (HeLa cells; 10 μM PA): no change
FRET signaling in cells (HeLa cells): retained; also recorded: decreased but still remained

diC16-VC-PABA-p53(14-29): cleavable p53(14-29) peptide amphiphile: diC16 hydrophobic tail, VC-PABA catB-cleavable linker, FAM and Tamra fluorophores
DLS second scattering (aggregation) [1]: 150 nm
Cellular internalization (HeLa cells; 2.5 μM PA): equivalently internalized within one hour
Time to almost complete cleavage of p53(14-29) from diC16 and loss of FRET signal (HeLa cells; 2.5 μM PA, 1 hour pulse then wash, time following incubation): ≤ 3 h
Relative amount of intracellular p53(14-29) peptide (Tamra intensity) (HeLa cells; 10 μM PA): similar
FRET signaling / FRET efficiency from 6 hours to 24 hours (HeLa cells; 10 μM PA): decreased
FRET signaling in cells (HeLa cells): almost undetectable by 6 hours

Source: patent publication US20180066031A1, “ENZYMATICALLY-CLEAVABLE PEPTIDE AMPHIPHILES” (The University of Chicago, priority 2016, published 2018)
